Structures can show the parent of a compound that is named as a salt.
target: human 5-HT6 receptor (Homo sapiens (Human), UniProt P50406); assay: radioligand binding assay (SPA format), [N-methyl-3H]-LSD; settings: read-out: human 5HT6 Ki

Chains of the proteins cited; added tags and fusions are not shown.
UniProt P50406, whole entry: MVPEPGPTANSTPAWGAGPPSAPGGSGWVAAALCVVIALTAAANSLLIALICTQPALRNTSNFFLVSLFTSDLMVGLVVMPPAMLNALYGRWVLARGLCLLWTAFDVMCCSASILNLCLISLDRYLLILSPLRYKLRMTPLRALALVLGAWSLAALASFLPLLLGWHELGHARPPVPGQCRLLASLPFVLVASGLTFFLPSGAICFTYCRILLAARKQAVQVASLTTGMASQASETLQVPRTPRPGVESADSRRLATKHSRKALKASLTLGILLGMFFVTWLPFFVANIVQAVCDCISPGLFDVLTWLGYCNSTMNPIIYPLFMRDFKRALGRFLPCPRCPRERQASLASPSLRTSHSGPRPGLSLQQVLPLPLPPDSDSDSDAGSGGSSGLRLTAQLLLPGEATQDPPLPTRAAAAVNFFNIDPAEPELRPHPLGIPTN

`Cl.Cn1c2c(c3cc(S(=O)(=O)c4ccccc4)ccc31)C1CCC(C2)N1` (stereo not shown) [Example 27, 2-Phenylsulfonyl-5-methyl-5,6,7,8,9,10-hexahydro-7,10-epiminocyclohepta[b]indole hydrochloride] was tested. Which Ki did it give?
Its Ki is 7.8 nM.

`Cl.Cn1c2c(c3cc(S(=O)(=O)c4cccc(OC(F)(F)F)c4)ccc31)C1CCC(C2)N1` (stereo not shown) [Example 39, 2-(3-Trifluoromethoxyphenyl)sulfonyl-5-methyl-5,6,7,8,9,10-hexahydro-7,10-epiminocyclohepta[b]indole hydrochloride] was tested. Which Ki did it give?
Its Ki is 3.8 nM.

For `Cl.Cn1c2c(c3cc(S(=O)(=O)c4cccc(C#N)c4)ccc31)C1CCC(C2)N1` (stereo not shown) [Example 43, 2-(3-Cyanophenyl)sulfonyl-5-methyl-5,6,7,8,9,10-hexahydro-7,10-epiminocyclohepta[b]indole hydrochloride], which Ki is on record?
The Ki was 35 nM.

With `CN(C)c1cccc(S(=O)(=O)c2ccc3c(c2)c2c(n3C)CC3CCC2N3)c1.Cl` (stereo not shown) [Example 45, 2-[(3-N,N-Dimethylamino)phenyl]sulfonyl-5-methyl-5,6,7,8,9,10-hexahydro-7,10-epiminocyclohepta[b]indole hydrochloride] as the compound, how does the Ki read?
Its Ki is 14 nM.

For `Cl.Cn1c2c(c3cc(S(=O)(=O)c4cccc(NC5CCCC5)c4)ccc31)C1CCC(C2)N1` (stereo not shown) [Example 48, 2-[(3-N-Cyclopentylamino)phenyl]sulfonyl-5-methyl-5,6,7,8,9,10-hexahydro-7,10-epiminocyclohepta[b]indole hydrochloride], which Ki is on record?
The Ki was 2 nM.

How did the Ki turn out when `Cl.Cn1c2c(c3cc(S(=O)(=O)c4ccc5ccccc5c4)ccc31)C1CCC(C2)N1` (stereo not shown) [Example 50, 2-(2-Napthyl)sulfonyl-5-methyl-5,6,7,8,9,10-hexahydro-7,10-epiminocyclohepta[b]indole hydrochloride] was run?
Its Ki is 37 nM.

Which Ki does the source give for `Cl.Cn1c2c(c3cc(S(=O)(=O)c4ccc(N)cc4)ccc31)C1CCC(C2)N1` (stereo not shown) [Example 53, 2-(4-Aminophenyl)sulfonyl-5-methyl-5,6,7,8,9,10-hexahydro-7,10-epiminocyclohepta[b]indole hydrochloride] here?
The Ki was 13 nM.

Which Ki does the source give for `Cl.Cn1c2c(c3cc(S(=O)(=O)c4ccsc4)ccc31)C1CCC(C2)N1` (stereo not shown) [Example 56, 2-(3-Thienyl)sulfonyl-5-methyl-5,6,7,8,9,10-hexahydro-7,10-epiminocyclohepta[b]indole hydrochloride] here?
The Ki was 51 nM.

For `Cl.Cn1c2c(c3cc(S(=O)(=O)c4cccc(-c5ccccc5)c4)ccc31)C1CCC(C2)N1` (stereo not shown) [Example 57, 2-[(3-Phenyl)-phenyl]sulfonyl-5-methyl-5,6,7,8,9,10-hexahydro-7,10-epiminocyclohepta[b]indole hydrochloride], which Ki is on record?
The Ki was 2.6 nM.

With `COc1ccc2c(ccn2S(=O)(=O)c2ccc3c(c2)c2c(n3C)CC3CCC2N3)c1.Cl` (stereo not shown) [Example 66, 2-[1-(5-Methoxy)-indole]sulfonyl-5-methyl-5,6,7,8,9,10-hexahydro-7,10-epiminocyclohepta[b]indole hydrochloride] as the compound, how does the Ki read?
Its Ki is 18 nM.

With `Cc1cc(S(=O)(=O)c2cccc(F)c2)cc2c3c(n(C)c12)CC1CCC3N1.Cl` (stereo not shown) [Example 72, 2-(3-Fluorophenyl)sulfonyl-4,5-dimethyl-5,6,7,8,9,10-hexahydro-7,10-epiminocyclohepta[b]indole hydrochloride] as the compound, how does the Ki read?
Its Ki is 8.1 nM.

Which Ki does the source give for `Cc1cc(S(=O)(=O)c2cccc(Cl)c2)cc2c3c(n(C)c12)CC1CCC3N1.Cl` (stereo not shown) [Example 73, 2-(3-Chloro-phenyl)sulfonyl-4,5-dimethyl-5,6,7,8,9,10-hexahydro-7,10-epiminocyclohepta[b]indole hydrochloride] here?
Its Ki is 3 nM.

For `Cc1cccc(S(=O)(=O)c2cc(C)c3c(c2)c2c(n3C)CC3CCC2N3)c1.Cl` (stereo not shown) [Example 74, 2-(3-Methyl-phenyl)sulfonyl-4,5-dimethyl-5,6,7,8,9,10-hexahydro-7,10-epiminocyclohepta[b]indole hydrochloride], which Ki is on record?
Its Ki is 7.1 nM.

Which Ki does the source give for `Cc1cc(S(=O)(=O)n2ccc3ccccc32)cc2c3c(n(C)c12)CC1CCC3N1.Cl` (stereo not shown) [Example 79, 2-[1-Indolesulfonyl]-4,5-dimethyl-5,6,7,8,9,10-hexahydro-7,10-epiminocyclohepta[b]indole] here?
Its Ki is 1.6 nM.

`CC(C)Oc1cc(S(=O)(=O)c2ccccc2)cc2c3c(n(C)c12)CC1CCC3N1.Cl` (stereo not shown) [Example 85, 2-Phenylsulfonyl-4-isopropoxy-5-methyl-5,6,7,8,9,10-hexahydro-7,10-epiminocyclohepta[b]indole hydrochloride] was tested. Which Ki did it give?
Its Ki is 14 nM.

With `Cn1c2c(c3cc(S(=O)(=O)c4ccc5[nH]ccc5c4)ccc31)C1CCC(C2)N1` (stereo not shown) [Example 94] as the compound, how does the Ki read?
The Ki was 0.32 nM.

For `Cn1c2c(c3cc(S(=O)(=O)c4c[nH]c5ccccc45)ccc31)C1CCC(C2)N1` (stereo not shown) [Example 98], which Ki is on record?
Its Ki is 1.3 nM.

How did the Ki turn out when `Cn1c2c(c3cc(S(=O)(=O)c4cccc5[nH]ccc45)ccc31)C1CCC(C2)N1` (stereo not shown) [Example 100] was run?
Its Ki is 1.2 nM.

With `Cn1c2c(c3cc(S(=O)(=O)n4ccc5ccncc54)ccc31)C1CCC(C2)N1` (stereo not shown) [Example 108] as the compound, how does the Ki read?
The Ki was 15 nM.

How did the Ki turn out when `CCn1cc(S(=O)(=O)c2ccc3c(c2)c2c(n3C)CC3CCC2N3)c2ccccc21` (stereo not shown) [Example 109] was run?
Its Ki is 0.72 nM.

For `CCn1ccc2cc(S(=O)(=O)c3ccc4c(c3)c3c(n4C)CC4CCC3N4)ccc21` (stereo not shown) [Example 118], which Ki is on record?
The Ki was 5.8 nM.

Which Ki does the source give for `Cn1c2c(c3cc(S(=O)(=O)c4cccc(-c5ccncc5)c4)ccc31)C1CCC(C2)N1` (stereo not shown) [Example 122] here?
The Ki was 48 nM.

How did the Ki turn out when `Cn1c2c(c3cc(S(=O)(=O)n4c5c(c6ccccc64)CCC5)ccc31)C1CCC(C2)N1` (stereo not shown) [Example 128] was run?
Its Ki is 24 nM.

With `Cn1c2c(c3cc(S(=O)(=O)c4cncc5ccccc45)ccc31)C1CCC(C2)N1` (stereo not shown) [Example 130] as the compound, how does the Ki read?
Its Ki is 3.6 nM.

`Cn1c2c(c3cc(S(=O)(=O)c4ccccc4)cc(O)c31)C1CCC(C2)N1` (stereo not shown) [Example 143] was tested. Which Ki did it give?
The Ki was 3.4 nM.

same assay, conditions: read-out: human 5HT6 Ki; human 5-HT6 receptor membranes, 10 nM [3H]-LSD; hydrochloride

How did the Ki turn out when `Cl.Cn1c2c(c3cc(S(=O)(=O)c4ccc(C(F)(F)F)cc4)ccc31)C1CCC(C2)N1` (stereo not shown) [Example 29, 2-(4-Trifluoromethylphenyl)sulfonyl-5-methyl-5,6,7,8,9,10-hexahydro-7,10-epiminocyclohepta[b]indole hydrochloride] was run?
Its Ki is 136 nM.

same assay, conditions: read-out: human 5HT6 Ki; hydrochloride

Which Ki does the source give for `Cn1c2c(c3cc(S(=O)(=O)c4cccc(C(F)(F)F)c4)ccc31)C1CCC(C2)N1` (stereo not shown) [Example 38, 2-(3-Trifluoromethylphenyl)sulfonyl-5-methyl-5,6,7,8,9,10-hexahydro-7,10-epiminocyclohepta[b]indole hydrochloride] here?
Its Ki is 2.1 nM.

For `Cn1c2c(c3cc(S(=O)(=O)n4ccc5ccccc54)ccc31)C1CCC(C2)N1` (stereo not shown) [Example 62, 2-(1-indole)sulfonyl-5-methyl-5,6,7,8,9,10-hexahydro-7,10-epiminocyclohepta[b]indole hydrochloride], which Ki is on record?
The Ki was 0.85 nM.

How did the Ki turn out when `Cl.Cn1c2c(c3cc(S(=O)(=O)n4ccc5cc(F)ccc54)ccc31)C1CCC(C2)N1` (stereo not shown) [Example 63, 2-[1-(5-Fluoro)-indole]sulfonyl-5-methyl-5,6,7,8,9,10-hexahydro-7,10-epiminocyclohepta[b]indole hydrochloride] was run?
The Ki was 1.43 nM.

How did the Ki turn out when `Cn1c2c(c3cc(S(=O)(=O)n4ccc5ccc(F)cc54)ccc31)C1CCC(C2)N1` (stereo not shown) [Example 65, 2-[1-(6-fluoro)-indole]sulfonyl-5-methyl-5,6,7,8,9,10-hexahydro-7,10-epiminocyclohepta[b]indole hydrochloride] was run?
The Ki was 0.59 nM.

For `COc1cc(S(=O)(=O)c2ccccc2)cc2c3c(n(C)c12)CC1CCC3N1.Cl` (stereo not shown) [Example 83, 2-Phenylsulfonyl-4-methoxy-5-methyl-5,6,7,8,9,10-hexahydro-7,10-epiminocyclohepta[b]indole hydrochloride], which Ki is on record?
The Ki was 0.96 nM.
